US20250195530A1, “POLQ INHIBITORS” (ASTRAZENECA AB, priority 2022, published 2025)

Amino acid sequences for entries named in this document (tags omitted). Residues count along the entry.
UniProt O75417, 1780-2590: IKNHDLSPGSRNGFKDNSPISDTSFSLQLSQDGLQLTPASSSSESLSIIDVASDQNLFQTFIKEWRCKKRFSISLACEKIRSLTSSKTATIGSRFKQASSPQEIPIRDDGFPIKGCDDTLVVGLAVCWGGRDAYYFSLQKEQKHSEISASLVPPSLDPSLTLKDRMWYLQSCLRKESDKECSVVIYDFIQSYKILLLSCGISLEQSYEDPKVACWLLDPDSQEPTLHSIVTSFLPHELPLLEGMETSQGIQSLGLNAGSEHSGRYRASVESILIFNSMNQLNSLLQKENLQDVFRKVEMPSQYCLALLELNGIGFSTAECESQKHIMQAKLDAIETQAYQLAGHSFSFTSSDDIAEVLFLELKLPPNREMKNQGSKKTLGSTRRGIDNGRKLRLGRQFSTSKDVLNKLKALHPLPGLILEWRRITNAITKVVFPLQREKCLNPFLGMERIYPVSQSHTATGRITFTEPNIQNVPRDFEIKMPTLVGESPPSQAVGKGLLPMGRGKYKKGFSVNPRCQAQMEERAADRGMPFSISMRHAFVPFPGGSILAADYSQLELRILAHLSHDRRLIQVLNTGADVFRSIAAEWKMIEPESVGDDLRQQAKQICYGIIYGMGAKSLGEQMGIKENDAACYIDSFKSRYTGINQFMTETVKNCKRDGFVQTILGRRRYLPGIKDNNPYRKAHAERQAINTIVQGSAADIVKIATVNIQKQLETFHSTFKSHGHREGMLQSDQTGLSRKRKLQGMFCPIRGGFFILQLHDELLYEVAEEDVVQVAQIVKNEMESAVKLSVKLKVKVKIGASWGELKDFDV

Molecular target: isolated polymerase domain (I1780-V2590) of DNA polymerase theta (Polθ) (Homo sapiens (Human), UniProt O75417)
Assay: biochemical

Row | IC50 [nM] | Compound
1 | 3.98 | Cc1ccnc(Cn2c(-c3ccc(OC4CC5(CNC5)C4)cc3Cl)nc3c(OC4(C)CC4)ncnc32)c1 [Example T457, 8-(4-((2-azaspiro[3.3]heptan-6-yl)oxy)-2-chlorophenyl)-6-(1-methylcyclopropoxy)-9-((4-methylpyridin-2-yl)methyl)-9H-purine]
2 | 7.94 | Cc1ccnc(Cn2c(-c3ccc(C(=O)N4CC(O)C4)cc3Cl)nc3c(OC4(C)CC4)ncnc32)c1 [Example T180, (3-chloro-4-(6-(1-methylcyclopropoxy)-9-((4-methylpyridin-2-yl)methyl)-9H-purin-8-yl)phenyl)(3-hydroxyazetidin-1-yl)methanone]
3 | 10 | Cc1ccnc(Cn2c(-c3ccc(OCCN)cc3Cl)nc3c(OC4(C)CC4)ncnc32)c1 [Example T69, 2-(3-chloro-4-(6-(1-methylcyclopropoxy)-9-((4-methylpyridin-2-yl)methyl)-9H-purin-8-yl)phenoxy)ethan-1-amine]
4 | 6.31 | Cc1ccnc(Cn2c(-c3ccc(N4CCNC(=O)C4)cc3Cl)nc3c(OC4(C)CC4)ncnc32)c1 [Example T201, 4-(3-chloro-4-(6-(1-methylcyclopropoxy)-9-((4-methylpyridin-2-yl)methyl)-9H-purin-8-yl)phenyl)piperazin-2-one]
5 | 10 | CC(CCOc1ccc(-c2nc3c(OC4(C)CC4)ncnc3n2Cc2cc(C(F)(F)F)cc(Cl)c2F)c(Cl)c1)C(=O)O (racemic) [Example U35, 4-(3-chloro-4-(9-(3-chloro-2-fluoro-5-(trifluoromethyl)benzyl)-6-(1-methylcyclopropoxy)-9H-purin-8-yl)phenoxy)-2-methylbutanoic acid]
6 | 3.98 | Cc1cnc(Cn2c(-c3ccc(OC4CCCN(C)CC4)cc3Cl)nc3c(OC4(C)CC4)ncnc32)s1 (single isomer, unassigned) [Example T390, 2-((8-(2-chloro-4-((1-methylazepan-4-yl)oxy)phenyl)-6-(1-methylcyclopropoxy)-9H-purin-9-yl)methyl)-5-methylthiazole]
7 | 10 | Cc1cnc(Cn2c(-c3cccc(OCCN(C)C)c3Cl)nc3c(OC4(C)CC4)ncnc32)s1 [Example T73, 2-(2-chloro-3-(6-(1-methylcyclopropoxy)-9-((5-methylthiazol-2-yl)methyl)-9H-purin-8-yl)phenoxy)-N,N-dimethylethan-1-amine]
8 | 7.94 | CC1(Oc2ncnc3c2nc(-c2ccc(OCCC(=O)NS(C)(=O)=O)cc2Cl)n3Cc2cccc(Cl)c2)CC1 [Example T189, 3-(3-chloro-4-(9-(3-chlorobenzyl)-6-(1-methylcyclopropoxy)-9H-purin-8-yl)phenoxy)-N-(methylsulfonyl)propanamide]
9 | 7.94 | CNC(=O)N1CC[C@@H](Oc2ccc(-c3nc4c(OC5(C)CC5)ncnc4n3Cc3cc(C)ccn3)c(Cl)c2)C1 [Example T501, (R)-3-(3-chloro-4-(6-(1-methylcyclopropoxy)-9-((4-methylpyridin-2-yl)methyl)-9H-purin-8-yl)phenoxy)-N-methylpyrrolidine-1-carboxamide]
10 | 126 | Cc1ccnc(Cn2c(-c3cc(CC(N)=O)ccc3Cl)nc3c(OC4(C)CC4)ncnc32)c1 [Example T57, 2-(4-chloro-3-(6-(1-methylcyclopropoxy)-9-((4-methylpyridin-2-yl)methyl)-9H-purin-8-yl)phenyl)acetamide]
11 | 10 | Cc1cnc(Cn2c(-c3ccc(OC[C@H]4CCCN4)cc3Cl)nc3c(OC4(C)CC4)ncnc32)s1 [Example T139, (R)-2-((8-(2-chloro-4-(pyrrolidin-2-ylmethoxy)phenyl)-6-(1-methylcyclopropoxy)-9H-purin-9-yl)methyl)-5-methylthiazole]
12 | 3.16 | CC(CCOc1ccc(-c2nc3c(OC4(C)CC4)ncnc3n2Cc2cccc(C#N)c2)c(Cl)c1)C(=O)O (racemic) [Example T399, 4-(3-chloro-4-(9-(3-cyanobenzyl)-6-(1-methylcyclopropoxy)-9H-purin-8-yl)phenoxy)-2-methylbutanoic acid]
13 | 2.51 | CNCCCOc1ccc(-c2nc3c(OC4(C)CC4)ncnc3n2Cc2cc(C)ccn2)c(Cl)c1 [Example T238, 3-(3-chloro-4-(6-(1-methylcyclopropoxy)-9-((4-methylpyridin-2-yl)methyl)-9H-purin-8-yl)phenoxy)-N-methylpropan-1-amine]
14 | 5.01 | CC(=O)NCCCOc1ccc(-c2nc3c(OC4(C)CC4)ncnc3n2Cc2cc(C)ccn2)c(Cl)c1 [Example T367, N-(3-(3-chloro-4-(6-(1-methylcyclopropoxy)-9-((4-methylpyridin-2-yl)methyl)-9H-purin-8-yl)phenoxy)propyl)acetamide]
15 | 6.31 | COc1ccc(Cl)cc1Cn1c(-c2ccc(CCCC(C)C(=O)O)cc2Cl)nc2c(OC3(C)CC3)ncnc21 (racemic) [Example U56, 5-(3-chloro-4-(9-(5-chloro-2-methoxybenzyl)-6-(1-methylcyclopropoxy)-9H-purin-8-yl)phenyl)-2-methylpentanoic acid]
16 | 3.98 | Cc1ccnc(Cn2c(-c3ccc(OCCOCCO)cc3Cl)nc3c(OC4(C)CC4)ncnc32)c1 [Example T233, 2-(2-(3-chloro-4-(6-(1-methylcyclopropoxy)-9-((4-methylpyridin-2-yl)methyl)-9H-purin-8-yl)phenoxy)ethoxy)ethan-1-ol]

Row | IC50 [nM] | Compound
17 | 3.98 | Cc1ccnc(Cn2c(-c3ccc(OC[C@@H]4CNC(=O)CO4)cc3Cl)nc3c(OC4(C)CC4)ncnc32)c1 [Example T324, (S)-6-((3-chloro-4-(6-(1-methylcyclopropoxy)-9-((4-methylpyridin-2-yl)methyl)-9H-purin-8-yl)phenoxy)methyl)morpholin-3-one]
18 | 5.01 | Cc1ccnc(Cn2c(-c3ccc(O[C@H]4CCNC4=O)cc3Cl)nc3c(OC4(C)CC4)ncnc32)c1 [Example T185, (S)-3-(3-chloro-4-(6-(1-methylcyclopropoxy)-9-((4-methylpyridin-2-yl)methyl)-9H-purin-8-yl)phenoxy)pyrrolidin-2-one]
19 | 6.31 | Cc1ccnc(Cn2c(-c3ccc(CCC(=O)N(C)C)cc3Cl)nc3c(OC4(C)CC4)ncnc32)c1 [Example T358, 3-(3-chloro-4-(6-(1-methylcyclopropoxy)-9-((4-methylpyridin-2-yl)methyl)-9H-purin-8-yl)phenyl)-N,N-dimethylpropanamide]
20 | 10 | Cc1ccnc(Cn2c(-c3ccc(OCC(=O)NCCO)cc3Cl)nc3c(OC4(C)CC4)ncnc32)c1 [Example T226, 2-(3-chloro-4-(6-(1-methylcyclopropoxy)-9-((4-methylpyridin-2-yl)methyl)-9H-purin-8-yl)phenoxy)-N-(2-hydroxyethyl)acetamide]
21 | 12.6 | Cc1ccnc(Cn2c(-c3ccc(C(=O)NCCO)cc3Cl)nc3c(OC4(C)CC4)ncnc32)c1 [Example T119, 3-chloro-N-(2-hydroxyethyl)-4-(6-(1-methylcyclopropoxy)-9-((4-methylpyridin-2-yl)methyl)-9H-purin-8-yl)benzamide]
22 | 5.01 | CC1(Oc2ncnc3c2nc(-c2cccc(OCCCC(=O)NS(C)(=O)=O)c2Cl)n3Cc2cccc(Cl)c2)CC1 [Example T325, 4-(2-chloro-3-(9-(3-chlorobenzyl)-6-(1-methylcyclopropoxy)-9H-purin-8-yl)phenoxy)-N-(methylsulfonyl)butanamide]
23 | 3.16 | COC(=O)NCCc1ccc(-c2nc3c(OC4(C)CC4)ncnc3n2Cc2cc(C)ccn2)c(Cl)c1 [Example T222, methyl (3-chloro-4-(6-(1-methylcyclopropoxy)-9-((4-methylpyridin-2-yl)methyl)-9H-purin-8-yl)phenethyl)carbamate]
24 | 5.01 | COc1ccc(C#N)cc1Cn1c(-c2ccc(OCCC(C)C(=O)O)cc2Cl)nc2c(OC3(C)CC3)ncnc21 (racemic) [Example U14, 4-(3-chloro-4-(9-(5-cyano-2-methoxybenzyl)-6-(1-methylcyclopropoxy)-9H-purin-8-yl)phenoxy)-2-methylbutanoic acid]
25 | 7.94 | Cc1ccnc(Cn2c(-c3ccc(OCC(=O)N(C)C)cc3Cl)nc3c(OC4(C)CC4)ncnc32)c1 [Example T216, 2-(3-chloro-4-(6-(1-methylcyclopropoxy)-9-((4-methylpyridin-2-yl)methyl)-9H-purin-8-yl)phenoxy)-N,N-dimethylacetamide]
26 | 12.6 | Cc1cnc(Cn2c(-c3ccc(OCCCN(C)C)cc3Cl)nc3c(OC4(C)CC4)ncnc32)s1 [Example T148, 3-(3-chloro-4-(6-(1-methylcyclopropoxy)-9-((5-methylthiazol-2-yl)methyl)-9H-purin-8-yl)phenoxy)-N,N-dimethylpropan-1-amine]
27 | 5.01 | COc1ccc(F)cc1Cn1c(-c2ccc(OCCC(C)C(=O)O)cc2Cl)nc2c(OC3(C)CC3)ncnc21 (racemic) [Example U2, 4-(3-chloro-4-(9-(5-fluoro-2-methoxybenzyl)-6-(1-methylcyclopropoxy)-9H-purin-8-yl)phenoxy)-2-methylbutanoic acid]
28 | 10 | Cc1ccnc(Cn2c(-c3ccc(OCC(=O)N4CCC(O)CC4)cc3Cl)nc3c(OC4(C)CC4)ncnc32)c1 [Example T580, 2-(3-chloro-4-(6-(1-methylcyclopropoxy)-9-((4-methylpyridin-2-yl)methyl)-9H-purin-8-yl)phenoxy)-1-(4-hydroxypiperidin-1-yl)ethan-1-one]
29 | 7.94 | CC1(Oc2ncnc3c2nc(-c2ccc(OCCCN4CC(O)C4)cc2Cl)n3Cc2cc(C(F)F)ccn2)CC1 [Example T452, 1-(3-(3-chloro-4-(9-((4-(difluoromethyl)pyridin-2-yl)methyl)-6-(1-methylcyclopropoxy)-9H-purin-8-yl)phenoxy)propyl)azetidin-3-ol]
30 | 2.51 | Cc1cc(OCCCN2CCCC2)ncc1-c1nc2c(OC3(C)CC3)ncnc2n1Cc1ccccc1 [Example G5, 9-benzyl-8-(4-methyl-6-(3-(pyrrolidin-1-yl)propoxy)pyridin-3-yl)-6-(1-methylcyclopropoxy)-9H-purine]
31 | 10 | Cc1ccnc(Cn2c(-c3ccc(S(N)(=O)=O)cc3Cl)nc3c(OC4(C)CC4)ncnc32)c1 [Example T9, 3-chloro-4-(6-(1-methylcyclopropoxy)-9-((4-methylpyridin-2-yl)methyl)-9H-purin-8-yl)benzenesulfonamide]
